These are literature values, as cited in patent US7179597B2, “Genetic diagnosis for QT prolongation related adverse drug reactions” (Georgetown University, priority 2000, dated 2007).

Amino acid sequences for entries named in this document (tags omitted).
UniProt P10635, whole entry: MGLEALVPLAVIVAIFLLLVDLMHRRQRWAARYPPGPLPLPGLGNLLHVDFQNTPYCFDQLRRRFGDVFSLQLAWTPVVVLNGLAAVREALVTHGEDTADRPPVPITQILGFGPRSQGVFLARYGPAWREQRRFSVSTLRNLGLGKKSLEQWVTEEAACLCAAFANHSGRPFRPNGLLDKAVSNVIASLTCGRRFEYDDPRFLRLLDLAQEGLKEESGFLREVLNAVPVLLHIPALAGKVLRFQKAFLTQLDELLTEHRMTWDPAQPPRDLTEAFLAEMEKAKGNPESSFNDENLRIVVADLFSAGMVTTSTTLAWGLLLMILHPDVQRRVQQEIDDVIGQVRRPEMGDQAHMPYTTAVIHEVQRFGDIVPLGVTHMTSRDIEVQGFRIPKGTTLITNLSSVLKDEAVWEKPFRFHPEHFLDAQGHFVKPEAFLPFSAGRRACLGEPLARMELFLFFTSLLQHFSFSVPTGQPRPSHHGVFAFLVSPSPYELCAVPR

Entries after “also recorded” stand apart in the source; their conditions may differ.

In the series the target is CYP2D6 (Homo sapiens, UniProt P10635). As to conditions: Table 3; cited from earlier work.

`CNCCC(Oc1ccc(C(F)(F)F)cc1)c1ccccc1` (stereo not shown) [Fluoxetine]: the “Interactions: cytochrome P-450 isoform 2D6, substrate or inhibitor” value is on record as “Substrate; also recorded: Inhibitor”.
